The source of these data is ChEMBL document CHEMBL1134623, “Design and synthesis of a series of (2R)-N(4)-hydroxy-2-(3-hydroxybenzyl)-N(1)- [(1S,2R)-2-hydroxy-2,3-dihydro-1H-inden-1-yl]butanediamide derivatives as potent, selective, and orally bioavailable aggrecanase inhibitors” (J Med Chem, 2001).

The structures appear in SMILES notation.

In general, Ki refers to a measure of affinity in units of concentration, obtained from inhibition or displacement. Lower therefore signals tighter binding.

The target in this experiment is T1, Interstitial collagenase (Homo sapiens, UniProt P03956).
T1 sequence (P03956 whole entry): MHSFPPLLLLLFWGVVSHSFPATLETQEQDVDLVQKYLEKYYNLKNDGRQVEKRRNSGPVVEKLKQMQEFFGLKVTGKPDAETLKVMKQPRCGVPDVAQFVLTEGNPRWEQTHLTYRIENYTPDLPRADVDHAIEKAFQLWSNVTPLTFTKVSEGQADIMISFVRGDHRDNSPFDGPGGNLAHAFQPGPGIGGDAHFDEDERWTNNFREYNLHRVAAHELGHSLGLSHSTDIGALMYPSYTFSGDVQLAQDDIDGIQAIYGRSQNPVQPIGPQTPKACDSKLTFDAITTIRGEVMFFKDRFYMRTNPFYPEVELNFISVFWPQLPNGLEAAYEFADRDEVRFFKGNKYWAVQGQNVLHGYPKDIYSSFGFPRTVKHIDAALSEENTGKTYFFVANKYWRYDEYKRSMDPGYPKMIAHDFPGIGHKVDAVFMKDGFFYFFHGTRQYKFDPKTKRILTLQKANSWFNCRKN
Briefly: Inhibition of matrix metalloprotease-1.

As for `CNC(=O)[C@H](Cc1ccc(OC)cc1)NC(=O)[C@@H](CC(=O)NO)CC(C)C`, the inhibition constant (Ki) was below 1 nM.
